Test results: ChEMBL document CHEMBL6153078, “Design, synthesis, and biological evaluation of imidazolidinone derivatives as potent PPARα/δ agonists for the treatment of cholestatic liver diseases” (Eur J Med Chem, 2025)
The source made the active and inactive calls.

By UniProt entry, the sequences of proteins in these tests, tags left out.
UniProt P10276, whole entry: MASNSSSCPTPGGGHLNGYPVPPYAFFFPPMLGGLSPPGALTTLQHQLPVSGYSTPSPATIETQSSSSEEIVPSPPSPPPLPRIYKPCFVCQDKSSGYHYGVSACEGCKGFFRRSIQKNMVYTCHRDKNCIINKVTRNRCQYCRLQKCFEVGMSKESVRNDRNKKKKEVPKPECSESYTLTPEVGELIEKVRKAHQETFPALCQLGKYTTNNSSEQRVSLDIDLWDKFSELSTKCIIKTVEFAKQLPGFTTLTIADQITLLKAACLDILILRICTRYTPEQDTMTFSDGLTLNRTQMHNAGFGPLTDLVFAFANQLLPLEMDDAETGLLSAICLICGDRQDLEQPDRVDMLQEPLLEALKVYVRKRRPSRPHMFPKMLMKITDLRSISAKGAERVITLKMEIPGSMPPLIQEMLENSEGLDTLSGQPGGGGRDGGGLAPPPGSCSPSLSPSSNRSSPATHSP
UniProt P10826, whole entry: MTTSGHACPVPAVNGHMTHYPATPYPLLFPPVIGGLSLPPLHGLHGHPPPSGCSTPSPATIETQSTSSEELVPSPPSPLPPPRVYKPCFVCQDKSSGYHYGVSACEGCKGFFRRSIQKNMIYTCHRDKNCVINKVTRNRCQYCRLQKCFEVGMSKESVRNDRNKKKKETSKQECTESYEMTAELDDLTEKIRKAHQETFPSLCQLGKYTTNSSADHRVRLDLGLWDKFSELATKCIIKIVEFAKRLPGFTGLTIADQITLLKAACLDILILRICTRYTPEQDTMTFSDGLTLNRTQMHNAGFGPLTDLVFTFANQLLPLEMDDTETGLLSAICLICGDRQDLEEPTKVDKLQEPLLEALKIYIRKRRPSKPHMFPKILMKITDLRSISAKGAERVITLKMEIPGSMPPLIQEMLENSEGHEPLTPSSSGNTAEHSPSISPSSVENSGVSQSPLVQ
UniProt P13631, whole entry: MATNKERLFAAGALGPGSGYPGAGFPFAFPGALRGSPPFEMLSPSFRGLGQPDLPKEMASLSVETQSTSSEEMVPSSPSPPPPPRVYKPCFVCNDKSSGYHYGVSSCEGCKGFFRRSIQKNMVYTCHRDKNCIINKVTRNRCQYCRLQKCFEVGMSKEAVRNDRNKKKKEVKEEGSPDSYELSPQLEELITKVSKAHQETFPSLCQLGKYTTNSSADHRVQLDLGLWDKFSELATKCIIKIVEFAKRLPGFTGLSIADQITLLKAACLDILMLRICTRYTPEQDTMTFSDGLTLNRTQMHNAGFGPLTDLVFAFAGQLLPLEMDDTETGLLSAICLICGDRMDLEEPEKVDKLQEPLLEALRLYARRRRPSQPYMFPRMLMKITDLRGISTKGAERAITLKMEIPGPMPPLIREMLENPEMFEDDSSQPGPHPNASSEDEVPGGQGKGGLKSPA

Columns and labels:
Assay type in all cases: cell-based
Conditions in all cases: dose 1-10 µM
[1] = molecular target: T1, Vitamin D3 receptor (Homo sapiens) (UniProt P11473); assay: Agonist activity at GAL4-fused VDR (unknown origin) transfected in African green monkey COS7 cells at 1 to 10 uM incubated for 16 hrs by Luciferase assay
T1 sequence (whole entry): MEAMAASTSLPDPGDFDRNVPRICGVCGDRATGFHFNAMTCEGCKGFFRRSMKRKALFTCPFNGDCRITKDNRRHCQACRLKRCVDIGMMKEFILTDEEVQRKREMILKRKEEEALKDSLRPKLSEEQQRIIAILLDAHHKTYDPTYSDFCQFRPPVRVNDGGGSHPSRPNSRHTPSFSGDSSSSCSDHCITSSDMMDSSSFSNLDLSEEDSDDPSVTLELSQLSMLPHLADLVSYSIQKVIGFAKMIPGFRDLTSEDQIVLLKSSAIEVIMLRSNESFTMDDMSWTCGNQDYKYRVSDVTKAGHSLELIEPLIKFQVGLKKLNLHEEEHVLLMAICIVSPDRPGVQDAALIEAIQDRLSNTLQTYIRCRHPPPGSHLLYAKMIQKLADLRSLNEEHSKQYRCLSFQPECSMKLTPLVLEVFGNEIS

[2] = molecular target: Retinoic acid receptor alpha (Homo sapiens) (UniProt P10276); assay: Agonist activity at GAL4-fused RAR-alpha (unknown origin) transfected in African green monkey COS7 cells at 1 to 10 uM incubated for 16 hrs by Luciferase assay
[3] = molecular target: Retinoic acid receptor beta (Homo sapiens) (UniProt P10826); assay: Inhibition of GAL4-fused RAR-beta (unknown origin) transfected in African green monkey COS7 cells at 1 to 10 uM incubated for 16 hrs by Luciferase assay
[4] = molecular target: Retinoic acid receptor gamma (Homo sapiens) (UniProt P13631); assay: Inhibition of GAL4-fused RAR-gamma (unknown origin) transfected in African green monkey COS7 cells at 1 to 10 uM incubated for 16 hrs by Luciferase assay
[5] = molecular target: T1, Vitamin D3 receptor (Homo sapiens); assay: Inhibition of GAL4-fused VDR (unknown origin) transfected in African green monkey COS7 cells at 1 to 10 uM incubated for 16 hrs by Luciferase assay
[6] = molecular target: Retinoic acid receptor gamma (Homo sapiens) (UniProt P13631); assay: Agonist activity at GAL4-fused RAR-gamma (unknown origin) transfected in African green monkey COS7 cells at 1 to 10 uM incubated for 16 hrs by Luciferase assay
[7] = molecular target: Retinoic acid receptor alpha (Homo sapiens) (UniProt P10276); assay: Inhibition of GAL4-fused RAR-alpha (unknown origin) transfected in African green monkey COS7 cells at 1 to 10 uM incubated for 16 hrs by Luciferase assay
[8] = molecular target: Retinoic acid receptor beta (Homo sapiens) (UniProt P10826); assay: Agonist activity at GAL4-fused RAR-beta (unknown origin) transfected in African green monkey COS7 cells at 1 to 10 uM incubated for 16 hrs by Luciferase assay

Cc1cc(CN2CCN(c3ccc(C(F)(F)F)cc3)C2=O)cc(C)c1OC(C)(C)C(=O)O
inactive: Activity [1] | Activity [2] | inhibition [3] | inhibition [4] | inhibition [5] | Activity [6] | inhibition [7] | Activity [8]
